Blank lines part the entries; values can stand above or below the compound they belong to.
Experiments:
Homo sapiens = organism: Homo sapiens; experiment: Potency index, ratio of (S)-3-amino-4-mercaptobutane-1-sulfonic acid Ki to test compound Ki for inhibition of APA (unknown origin)
[1] = target: Aminopeptidase A (Rattus norvegicus) (UniProt P50123); experiment: In vivo inhibition of aminopeptidase A in alert male spontaneously hypertensive rat model assessed as decrease in APA activity in brain by measuring hydrolyzed GlubetaNa at 100 mg/kg, iv measured after 30 mins; format: functional, organism-based
[2] = Selectivity index, ratio of IC50 for inhibition of APN (unknown origin) to IC50 for inhibition of recombinant mouse APA
[3] = target: Aminopeptidase A (Rattus norvegicus) (UniProt P50123); experiment: In vivo inhibition of aminopeptidase A in alert male spontaneously hypertensive rat model assessed as decrease in APA activity in brain by measuring hydrolyzed GlubetaNa at 2 mg/kg, iv measured after 30 mins; format: functional, organism-based
[4] = target: Aminopeptidase A (Rattus norvegicus) (UniProt P50123); experiment: In vivo inhibition of aminopeptidase A in alert male spontaneously hypertensive rat model assessed as decrease in cardiac APA activity by measuring hydrolyzed GlubetaNa at 2 mg/kg, iv measured after 30 mins; format: functional, organism-based
[5] = target: Aminopeptidase A (Rattus norvegicus) (UniProt P50123); experiment: In vivo inhibition of aminopeptidase A in alert male spontaneously hypertensive rat model assessed as decrease in renal APA activity by measuring hydrolyzed GlubetaNa at 2 mg/kg, iv measured after 30 mins; format: functional, organism-based

The chains behind the UniProt entries cited, without tags or fusion partners.
UniProt P50123, whole entry: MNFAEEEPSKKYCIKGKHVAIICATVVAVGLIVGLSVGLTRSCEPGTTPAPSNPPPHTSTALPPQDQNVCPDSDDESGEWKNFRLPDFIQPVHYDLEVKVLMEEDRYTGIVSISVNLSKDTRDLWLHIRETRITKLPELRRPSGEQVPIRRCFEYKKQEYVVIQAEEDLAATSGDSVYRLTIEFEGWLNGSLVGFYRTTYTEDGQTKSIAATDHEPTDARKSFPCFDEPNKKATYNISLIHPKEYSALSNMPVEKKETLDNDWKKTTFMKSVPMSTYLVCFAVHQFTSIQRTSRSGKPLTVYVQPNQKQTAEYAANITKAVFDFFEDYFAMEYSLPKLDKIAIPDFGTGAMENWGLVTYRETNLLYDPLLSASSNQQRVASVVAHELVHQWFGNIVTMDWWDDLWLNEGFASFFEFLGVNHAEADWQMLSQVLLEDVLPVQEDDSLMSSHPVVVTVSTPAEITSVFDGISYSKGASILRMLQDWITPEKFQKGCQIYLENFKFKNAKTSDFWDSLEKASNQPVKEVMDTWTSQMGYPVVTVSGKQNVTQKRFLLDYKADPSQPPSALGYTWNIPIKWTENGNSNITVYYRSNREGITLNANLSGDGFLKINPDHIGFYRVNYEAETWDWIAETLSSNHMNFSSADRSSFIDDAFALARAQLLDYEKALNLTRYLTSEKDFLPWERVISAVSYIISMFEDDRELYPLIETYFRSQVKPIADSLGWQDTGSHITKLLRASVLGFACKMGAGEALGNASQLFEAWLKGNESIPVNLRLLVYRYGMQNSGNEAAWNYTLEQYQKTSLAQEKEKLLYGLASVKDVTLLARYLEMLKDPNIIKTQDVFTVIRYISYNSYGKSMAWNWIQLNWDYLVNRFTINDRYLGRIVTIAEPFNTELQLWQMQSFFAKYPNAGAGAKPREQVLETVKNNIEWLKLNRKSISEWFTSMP

Ratio Ki (Homo sapiens): 10
SMILES: N[C@@H](CCS(=O)(=O)O)[C@@H](S)CCc1ccccc1

Activity [1]: 14.7 nmol/mg/h
SMILES: N[C@@H](CCS(=O)(=O)O)CSSC[C@@H](N)CCS(=O)(=O)O

Ratio IC50 [2]: > 5000
Activity [3]: 25.5 nmol/mg/h
Activity [4]: 17 nmol/mg/h
Activity [5]: 1890 nmol/mg/h
SMILES: COc1ccccc1CCP(=O)(O)[C@@H](N)CCC(=O)O

— ChEMBL document CHEMBL6074628, “Rational design, synthesis and pharmacological characterization of novel aminopeptidase A inhibitors” (Bioorg Med Chem Lett, 2024)
